Ki and IC50 data for two molecules are collected here from patent US9434724B2, “Quinuclidines for modulating alpha 7 activity” (priority 2014, dated 2016).

Protein sequences, listed by entry. Tags and fused reporters are not part of them. Residues count along the entry.
UniProt Q05941, 23-502 limits assumed: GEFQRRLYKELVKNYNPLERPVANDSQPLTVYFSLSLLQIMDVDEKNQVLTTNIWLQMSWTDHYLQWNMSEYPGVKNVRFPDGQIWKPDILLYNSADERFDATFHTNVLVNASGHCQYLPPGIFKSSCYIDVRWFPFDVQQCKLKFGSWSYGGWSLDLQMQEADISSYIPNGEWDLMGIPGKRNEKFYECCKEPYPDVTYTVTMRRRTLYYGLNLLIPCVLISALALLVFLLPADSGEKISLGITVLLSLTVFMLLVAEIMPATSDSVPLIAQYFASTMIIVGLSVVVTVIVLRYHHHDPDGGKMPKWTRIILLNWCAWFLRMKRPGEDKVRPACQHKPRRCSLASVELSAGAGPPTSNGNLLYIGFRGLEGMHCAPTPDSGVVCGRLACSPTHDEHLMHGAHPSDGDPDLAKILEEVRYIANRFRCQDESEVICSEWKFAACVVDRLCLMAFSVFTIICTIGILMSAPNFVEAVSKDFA

A word on the Ki: it is the equilibrium dissociation constant of an inhibitor or competing ligand from its target. A word on the IC50: it is the point on the concentration scale where inhibition reaches its midpoint.

The target of the test is rat brain nicotinic receptor (α7 NAChR) (Rattus norvegicus (Rat), UniProt Q05941). It is filed as binding.

In turn, `N#Cc1ccc2c(C(=O)OCC34CCN(CC3)CC4)c[nH]c2c1` [Compound 28, quinuclidin-4-ylmethyl 6-cyano-1H-indole-3-carboxylate] displayed a Ki of 796 nM.

With `O=C(OCC12CCN(CC1)CC2)c1c[nH]c2cc(Cl)cc(Br)c12` [Compound 42, quinuclidin-4-ylmethyl 4-bromo-6-chloro-1H-indole-3-carboxylate], the half-inhibitory concentration (IC50) was found to be 1100 nM.
